# Test results: PubChem BioAssay AID652054 (National Center for Advancing Translational Sciences (NCATS), 2013)
# By UniProt entry, the sequences of proteins in these tests, tags left out.
# UniProt P35462, whole entry: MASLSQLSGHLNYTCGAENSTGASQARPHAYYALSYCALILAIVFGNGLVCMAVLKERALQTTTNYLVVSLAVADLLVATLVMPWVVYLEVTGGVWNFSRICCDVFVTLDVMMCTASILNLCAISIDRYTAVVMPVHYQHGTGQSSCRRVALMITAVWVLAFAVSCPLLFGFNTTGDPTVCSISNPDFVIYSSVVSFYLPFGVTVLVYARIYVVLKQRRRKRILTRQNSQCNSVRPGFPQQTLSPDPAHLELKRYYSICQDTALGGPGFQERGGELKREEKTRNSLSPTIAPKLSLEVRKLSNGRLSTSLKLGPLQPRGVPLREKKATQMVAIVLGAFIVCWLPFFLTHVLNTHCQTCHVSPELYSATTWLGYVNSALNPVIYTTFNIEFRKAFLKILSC
# The entries are a selection whose mix differs from that of the whole data set. Records with an inconclusive call do not appear. Activity calls are given as the source filed them. Cut-off read from the data, not from the text of the source: active = max response below about -50%; inconclusive = no clear call, values can overlap the other calls; inactive = above that.
# Target: D(3) dopamine receptor (Homo sapiens) (UniProt P35462)
# Assay: qHTS of D3 Dopamine Receptor Antagonist: qHTS
# Conditions: D3R cells, DiscoveRx beta-arrestin luminescence, antagonist mode; stronger effect = lower value
# From the text: D3 DARs represent a very important target for the treatment of several neuropsychiatric disorders. Indeed, one of the most promising therapeutic applications for the D3 DAR is in the area of addiction and related disorders. […] These findings have been observed with a number of addictive substances including cocaine, amphetamine, nicotine, and alcohol. […] Antagonism of the D3 DAR may also be therapeutic in the treatment of schizophrenia or psychosis. […] Since the D3 DAR is expressed in areas of the CNS associated with the control of mood and emotion, it has been hypothesized that selective antagonism of the D3 DAR may be effective in treating psychosis without inducing the motor side effects typically seen with D2 DAR antagonists.
# This part of the project aims to discover novel antagonist.
# NIH Chemical Genomics Center [NCGC]
# NIH Molecular Libraries Probe Centers Network [MLPCN]
# Assay Submitter (PI): David Sibley, NINDS
# Freshly passaged cells are plated in 1536 well white, solid bottom plates at a density of 1500 cells/well in 3microl of complete media. After an overnight incubation at 37 degrees C in 5% CO2, cells are loaded with 23nl of test compound from the compound library (as well as dopamine controls) using a 1536 pintool and incubated at 37 degrees C for 90 minutes. […] Following incubation, luminescence is measured on a ViewLux CCD-based luminometer reader using a 20 sec exposure time.
# % is set by controls: 0 for no effect and ±100 for the full control effect.
row,Compound,"max response, negative = inhibition"
1,CCC(=O)N(c1ccccc1)C1(COC)CCN(CCc2cccs2)CC1,inactive: 0%
2,CCC(=O)N(c1ccccc1)C1(COC)CCN(CCn2nnn(CC)c2=O)CC1,inactive: -12.9%
